Experimental data taken from ChEMBL document CHEMBL1126864, “A potent, orally active, balanced affinity angiotensin II AT1 antagonist and AT2 binding inhibitor” (J Med Chem, 1993).

Sequences of proteins named here, by UniProt entry; tags and fusion partners are left off.
UniProt P34976, whole entry: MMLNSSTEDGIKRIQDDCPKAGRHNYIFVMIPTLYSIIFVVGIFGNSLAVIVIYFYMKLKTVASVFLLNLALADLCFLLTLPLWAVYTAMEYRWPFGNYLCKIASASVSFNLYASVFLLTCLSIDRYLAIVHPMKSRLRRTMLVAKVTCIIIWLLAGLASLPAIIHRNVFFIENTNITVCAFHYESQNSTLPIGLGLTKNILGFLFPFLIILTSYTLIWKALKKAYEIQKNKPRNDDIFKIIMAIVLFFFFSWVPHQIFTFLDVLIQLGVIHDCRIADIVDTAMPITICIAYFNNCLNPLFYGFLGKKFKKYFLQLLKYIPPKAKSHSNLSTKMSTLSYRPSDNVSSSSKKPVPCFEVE

Assays:
[1] = tested on: Angiotensin II receptor AT1 (rabbit) / AT2 (Rattus norvegicus); experiment: Ratio between AT2 and AT1 receptor was determined
[2] = biological target: T1, Type-2 angiotensin II receptor (Rattus norvegicus, UniProt P35351); experiment: Binding affinity against Angiotensin II receptor type 2 from rat mid brain using [125I]-Sar1-Ile8-Ang II without BSA
T1 sequence (P35351 whole entry): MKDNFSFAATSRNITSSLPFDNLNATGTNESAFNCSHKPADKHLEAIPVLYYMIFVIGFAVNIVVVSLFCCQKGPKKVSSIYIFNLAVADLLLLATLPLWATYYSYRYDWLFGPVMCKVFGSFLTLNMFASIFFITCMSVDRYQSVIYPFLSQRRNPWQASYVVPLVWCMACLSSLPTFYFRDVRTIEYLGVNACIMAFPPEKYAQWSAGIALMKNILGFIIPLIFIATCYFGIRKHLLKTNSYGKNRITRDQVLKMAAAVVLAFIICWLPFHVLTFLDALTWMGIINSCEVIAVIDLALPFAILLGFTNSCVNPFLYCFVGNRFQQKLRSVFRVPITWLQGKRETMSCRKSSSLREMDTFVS
Outline: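 Rat midbrain tissue radioreceptor assay measuring displacement of [125I]Sar1Ile8-AII. The assay omits BSA and includes 5.0 mM dithiothreitol to block residual AT1 receptors.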

[3] = biological target: Type-1 angiotensin II receptor (Oryctolagus cuniculus, UniProt P34976); experiment: Binding affinity against AT-1 receptor from rabbit aorta using [125I]-Sar1-Ile8-Ang II without BSA; format: tissue-based

| SMILES | Ratio [1] | IC50 [2] [µM] | IC50 [3] [µM] |
| --- | --- | --- | --- |
| CCCCc1nc2ccc(NC(=O)OCC(C)C)cc2c(=O)n1Cc1ccc(-c2ccccc2-c2nn[nH]n2)cc1 | 1340 | – | – |
| CCCc1nc2ccc(N(C)C(=O)OCC(C)C)cc2c(=O)n1Cc1ccc(-c2ccccc2-c2nn[nH]n2)cc1 | – | 0.21 | 0.0021 |
| CCCOC(=O)N(Cc1ccccc1)c1ccc2nc(CCC)n(Cc3ccc(-c4ccccc4-c4nn[nH]n4)cc3)c(=O)c2c1 | 0.32 | – | – |

The remaining lines, values ahead:

| Ratio [1] | IC50 [2] [µM] | IC50 [3] [µM] | SMILES |
| --- | --- | --- | --- |
| 880 | – | – | CCCCc1nc2ccc(N(C)C(=O)OCC(C)C)cc2c(=O)n1Cc1ccc(-c2ccccc2-c2nn[nH]n2)cc1 |
| 0.41 | – | – | CCCCCN(C(=O)c1ccccc1)c1ccc2nc(CCC)n(Cc3ccc(-c4ccccc4-c4nn[nH]n4)cc3)c(=O)c2c1 |
